Values quoted from earlier work as cited in patent US5939096A, “Liposome drug-loading method and composition” (priority 1997, dated 1999).

Conditions: pH 7; cited from earlier work

CCn1cc(C(=O)O)c(=O)c2ccc(C)nc21 [nalidixic acid]
partition coefficient Kp: 3.34 ± 0.08
